# Source: US12528818B2, “Compositions and methods for inhibition of RAS” (Leidos Biomedical Research, Inc., priority 2021, dated 2026)
# pIC50: −log10 of the molar value.
# What was measured:
# [1] = target: GDP-loaded KRAS4b (amino acids 1-169) G12C/C118S protein (Homo sapiens, UniProt P01116, C118S/G12C); test: Covalent cysteine 12 modification by MALDI-TOF MS, GDP-loaded KRAS G12C; format: biochemical; settings: 15 minutes reaction time, compound 95 or later using 1 μM proteins
# [2] = target: GppNHp-loaded KRAS4b (amino acids 1-169) G12C/C118S protein (Homo sapiens, UniProt P01116, C118S/G12C); test: Covalent cysteine 12 modification by MALDI-TOF MS, GppNHp-loaded KRAS G12C; format: biochemical; settings: 15 minutes reaction time, compound 95 or later using 1 μM proteins
# [3] = target: T1, GTP-loaded KRAS4b (amino acids 1-169) G12C/C118S protein (Homo sapiens, UniProt P01116, C118S/G12C); test: Covalent cysteine 12 modification by MALDI-TOF MS, GTP-loaded KRAS G12C; format: biochemical; settings: 15 minutes reaction time, compound 95 or later using 1 μM proteins
# T1 construct: KRAS4b (amino acids 1-169) G12C/C118S protein; made in house
# [4] = target: Avi-KRAS G12C (1-169) GppNHp/RAF1 RBD-3xFLAG (52-151) (Homo sapiens, UniProt P01116, G12C); test: biochemical; settings: Raf1-GppNHp-KRAS G12C disruption, Raf1 RBD-KRAS G12C-GppNHp disruption assay IC50
GDP-KRAS G12C percent of modification [1],GppNHp-KRAS G12C percent of modification [2],GTP-KRAS G12C percent of modification [3],pIC50 [4],Structure (SMILES)
A (percent of modification ≥70%),A (percent of modification ≥70%),C (10%≤percent of modification <50%),> 6.30,C=CC(=O)N1C[C@H](C)N(c2nc(OC[C@@]34CCCN3C[C@H](F)C4)nc3c(F)c(-c4ccc(F)c5sc(N)c(C#N)c45)c(F)cc23)C[C@H]1C [Compound 333]
A (percent of modification ≥70%),B (50≤percent of modification <70%),C (10%≤percent of modification <50%),> 6.30,C=CC(=O)N1C[C@H](C)N(c2nc(OC[C@@]34CCCN3C[C@H](F)C4)nc3c(Cl)c(-c4ccc(F)c5sc(N)c(C#N)c45)c(C#N)cc23)C[C@H]1C [Compound 422]
A (percent of modification ≥70%),A (percent of modification ≥70%),A (percent of modification ≥70%),> 6.30,C=CC(=O)N1C[C@@H](F)[C@@H](N(C)c2nc(OC[C@@]34CCCN3C[C@H](F)C4)nc3cc(-c4ccc(F)c5sc(N)nc45)c(C(F)(F)F)cc23)C1 [Compound 317]
B (50≤percent of modification <70%),D (percent of modification <10%),D (percent of modification <10%),5.30 to 6.30,C=CC(=O)N1CCC(N(C)c2nc(OC[C@@H]3C[C@@H](F)CN3C)nc3c(F)c(-c4ccc(F)c5sc(N)c(C#N)c45)c(Cl)cc23)[C@H]1C (some centres unmarked) [Compound 449]
A (percent of modification ≥70%),A (percent of modification ≥70%),A (percent of modification ≥70%),> 6.30,C=CC(=O)N1CCC(N(C)c2nc(OC[C@@H]3CCCN3C)nc3c(F)c(-c4ccc(F)c5sc(N)c(C#N)c45)ccc23)[C@H]1COC (some centres unmarked) [Compound 432]
A (percent of modification ≥70%),A (percent of modification ≥70%),B (50≤percent of modification <70%),> 6.30,C=CC(=O)N1C[C@H](C)N(c2nc(OC[C@@]34CCCN3C[C@H](OC)C4)nc3c(F)c(-c4ccc(F)c5sc(N)c(C#N)c45)c(Cl)cc23)C[C@H]1C [Compound 367]
B (50≤percent of modification <70%),B (50≤percent of modification <70%),B (50≤percent of modification <70%),> 6.30,C=CC(=O)N1C[C@@H](F)[C@@H](N(CC)c2nc(OC[C@@]34CCCN3C[C@H](F)C4)nc3c(F)c(-c4ccc(F)c5sc(N)c(C#N)c45)c(C(F)(F)F)cc23)C1 [Compound 362]
A (percent of modification ≥70%),C (10%≤percent of modification <50%),D (percent of modification <10%),> 6.30,C=CC(=O)N1C[C@H](C)N(c2ncnc3c(F)c(-c4ccc(F)c5sc(N)c(C#N)c45)c(C(F)(F)F)cc23)C[C@H]1C [Compound 382]
A (percent of modification ≥70%),A (percent of modification ≥70%),B (50≤percent of modification <70%),> 6.30,C=CC(=O)N1CC[C@@H](N(CC)c2nc(OC[C@@]34CCCN3C[C@H](F)C4)nc3cc(-c4ccc(F)c5sc(N)c(C#N)c45)c(F)cc23)[C@H]1COC [Compound 437]
B (50≤percent of modification <70%),C (10%≤percent of modification <50%),C (10%≤percent of modification <50%),> 6.30,C=CC(=O)N1C[C@@H](C)[C@@H](N(C)c2nc(OC[C@@]34CCCN3C[C@H](F)C4)nc3c(F)c(-c4ccc(F)c5sc(N)nc45)c(C(F)(F)F)cc23)C1 [Compound 292]
B (50≤percent of modification <70%),A (percent of modification ≥70%),B (50≤percent of modification <70%),> 6.30,C=CC(=O)N1CC[C@@H](N(C)c2nc(OCC3(CN4CCOCC4)CC3)nc3c(F)c(-c4ccc(F)c5sc(N)nc45)c(C(F)(F)F)cc23)C1 [Compound 287]
B (50≤percent of modification <70%),C (10%≤percent of modification <50%),C (10%≤percent of modification <50%),> 6.30,C=CC(=O)N1CCC(N(C)c2nc(OC[C@@H]3C[C@@H](F)CN3C)nc3c(F)c(-c4ccc(F)c5sc(N)c(C#N)c45)c(C(F)(F)F)cc23)[C@H]1COC (some centres unmarked) [Compound 443]
A (percent of modification ≥70%),A (percent of modification ≥70%),A (percent of modification ≥70%),> 6.30,C=CC(=O)N1C[C@H](F)[C@@H](N(C)c2nc(OC[C@@]34CCCN3C[C@H](F)C4)nc3cc(-c4ccc(F)c5sc(N)c(C#N)c45)c(C(F)(F)F)cc23)C1 [Compound 320]
A (percent of modification ≥70%),A (percent of modification ≥70%),A (percent of modification ≥70%),> 6.30,C=CC(=O)N1CCC(N(C)c2nc(OC[C@@]34CCCN3C[C@H](F)C4)nc3c(F)c(-c4ccc(F)c5sc(N)nc45)ccc23)[C@H]1C (some centres unmarked) [Compound 413]
A (percent of modification ≥70%),C (10%≤percent of modification <50%),C (10%≤percent of modification <50%),> 6.30,C=CC(=O)N1CCC(N(C)c2nc(OC[C@@]34CCCN3C[C@H](OC)C4)nc3c(F)c(-c4ccc(F)c5sc(N)c(C#N)c45)c(C(F)(F)F)cc23)[C@H]1C (some centres unmarked) [Compound 476]
A (percent of modification ≥70%),A (percent of modification ≥70%),A (percent of modification ≥70%),> 6.30,"C=CC(=O)N1CCC(N(C)c2nc(OC[C@@]34CCCN3C[C@H](F)C4)nc3c(C#N)c(-c4ccc(F)c5sc(N)c(C#N)c45)c(Cl)cc23)[C@H]1C (stereo partly drawn) [Compound 388, 4-((1-acryloyl-2-methylpyrrolidin-3-yl)(methyl)amino)-7-(2-amino-3-cyano-7-fluorobenzo[b]thiophen-4-yl)-6-chloro-2-(((2R,7aS)-2-fluorotetrahydro-1H-pyrrolizin-7a(5H)-yl)methoxy)quinazoline-8-carbonitrile]"
C (10%≤percent of modification <50%),C (10%≤percent of modification <50%),C (10%≤percent of modification <50%),> 6.30,C=CC(=O)N1C[C@H](C)N(c2nc(OC[C@@H]3C[C@@H](F)CN3C)nc3c(F)c(-c4ccc(F)c5sc(N)c(C#N)c45)c(C(F)(F)F)cc23)C[C@H]1C [Compound 406]
A (percent of modification ≥70%),A (percent of modification ≥70%),A (percent of modification ≥70%),> 6.30,C=CC(=O)N1CC[C@@H](N(CC)c2nc(OC[C@@]34CCCN3C[C@H](F)C4)nc3cc(-c4ccc(F)c5sc(N)c(C#N)c45)c(F)cc23)[C@H]1C [Compound 414]
A (percent of modification ≥70%),B (50≤percent of modification <70%),D (percent of modification <10%),> 6.30,C=CC(=O)N1C[C@H](C)N(c2nc(OC[C@@]34CCCN3C[C@H](F)C4)nc3c(F)c(-c4ccc(F)c5sc(N)c(C#N)c45)ccc23)C[C@H]1C [Compound 312]
A (percent of modification ≥70%),A (percent of modification ≥70%),A (percent of modification ≥70%),> 6.30,C=CC(=O)N1C[C@@H](F)[C@@H](N(C)c2nc(OCC34CCCN3CCC4)nc3c(F)c(-c4ccc(F)c5sc(N)c(C#N)c45)c(C(F)(F)F)cc23)C1 [Compound 374]
A (percent of modification ≥70%),A (percent of modification ≥70%),B (50≤percent of modification <70%),> 6.30,C=CC(=O)N1CCC(N(CC)c2nc(OC[C@@H]3CCCN3C)nc3c(F)c(-c4ccc(F)c5sc(N)c(C#N)c45)c(C(F)(F)F)cc23)[C@H]1COC (some centres unmarked) [Compound 438]
A (percent of modification ≥70%),A (percent of modification ≥70%),A (percent of modification ≥70%),> 6.30,C=CC(=O)N1C[C@@H](F)[C@@H](N(CC)c2nc(OC[C@@]34CCCN3C[C@H](F)C4)nc3c(F)c(-c4ccc(F)c5sc(N)c(C#N)c45)c(Cl)cc23)C1 [Compound 368]
A (percent of modification ≥70%),A (percent of modification ≥70%),A (percent of modification ≥70%),> 6.30,C=CC(=O)N1CC[C@@H](N(C)c2nc(OC[C@@]34CCCN3C[C@H](OC)C4)nc3c(F)c(-c4ccc(F)c5sc(N)nc45)c(C(F)(F)F)cc23)C1 [Compound 290]
